Experimental findings from patent publication US10016519B2, “18F-tagged inhibitors of prostate specific membrane antigen (PSMA), their use as imaging agents and pharmaceutical agents for the treatment of prostate cancer” (DEUTSCHES KREBSFORSCHUNGSZENTRUM, priority 2014, dated 2018) are described below.

The subject of series [1] is BALB/c nu/nu mice bearing LNCaP tumor. As to the kind of experiment: Organ distribution. In kind it is in vivo. The settings on record: 1 h after injection, tail vein, 60 pmol, n=3. As to the method:
The F-18 labeled compounds were injected via tail vein (1-2 MBq per mouse; 60 pmol). At 1 h after injection, the animals were sacrificed. Organs of interest were dissected, blotted dry, and weighed. The radioactivity was measured with a gamma counter (Packard Cobra II, GMI, Minnesota, USA) and calculated as % ID/g.

Series [2] relates to mice bearing LNCaP tumor xenografts. As to the kind of experiment: Dynamic microPET imaging. Here is the method:
FIG. 9: PET imaging of PSMA-1001. Whole-body coronal microPET images of an athymic male nude mice bearing LNCaP tumor xenografts. The tumor-targeting efficacy and pharmacokinetic properties of ^18F-PSMA-1001 were evaluated by dynamic microPET scans. Approximately 15 MBq/mouse were injected. […] The values are expressed as mean SUV (standardized uptake values).
Whole-body coronal microPET images of an athymic male nude mice bearing LNCaP tumor xenografts. […] Approximately 15 MBq/mouse were injected. […] The values are expressed as mean SUV (standardized uptake values).
For in vivo experiments, 8 week old BALB/c nu/nu mice were subcutaneously inoculated into the right trunk with 5×10^6 LNCaP- or PC3-cells in 50% Matrigel. When the size of tumor was approximately 1 cm^3, the radiolabeled compound was injected via the tail vein (ca. 30 MBq, 60 pmol for μPET imaging; ca. 1 MBq, 60 pmol for organ distribution).
For the microPET studies, 10-25 MBq of the radiolabeled compounds in a volume of 0.15 mL (˜60 pmol) were injected via a lateral tail vein into mice bearing LNCaP tumor xenografts. The anesthetized animals (2% sevoflurane, Abbott, Wiesbaden, Germany) were placed in prone position into the Inveon small animal PET scanner (Siemens, Knoxville, Tenn., USA) to perform dynamic microPET scans and 20 min-static scans.

Turning to “(Glu)-(Urea)-((D)-Lys)-(2-Naphthylalanine)-(4-(Aminomethyl)benzoic acid)-FN [PSMA-1003]”, in series [1], the “Organ distribution, Kidney, Mean” value came out at 32.4 % ID/g; the “Organ distribution, LNCaP Tumor, Mean” value turned out to be 3.4 % ID/g; the “Organ distribution, Liver, Mean” value is on record as 3.0 % ID/g; the “Organ distribution, Small intestine, Mean” value turned out to be 8.5 % ID/g. Further, the “Tumor uptake SUV” value in series [2] (LNCaP tumor xenograft, at 57 minutes) is recorded as 0.9. Besides, in series [2] (LNCaP xenograft mice), the “Uptake in the liver (microPET)” value is reported as “still high”.
